These results are taken from paper doi:10.1101/2021.02.22.432310, “Tetrameric UvrD helicase is located at the E. coli replisome due to frequent replication blocks” (bioRxiv, 2021).

The target in this test is T1, Biotinylated Rep (E. coli, UniProt P09980 1-673, biotin).
T1 construct: Rep helicase, E. coli; also called E. coli Rep
T1 sequence (looked up): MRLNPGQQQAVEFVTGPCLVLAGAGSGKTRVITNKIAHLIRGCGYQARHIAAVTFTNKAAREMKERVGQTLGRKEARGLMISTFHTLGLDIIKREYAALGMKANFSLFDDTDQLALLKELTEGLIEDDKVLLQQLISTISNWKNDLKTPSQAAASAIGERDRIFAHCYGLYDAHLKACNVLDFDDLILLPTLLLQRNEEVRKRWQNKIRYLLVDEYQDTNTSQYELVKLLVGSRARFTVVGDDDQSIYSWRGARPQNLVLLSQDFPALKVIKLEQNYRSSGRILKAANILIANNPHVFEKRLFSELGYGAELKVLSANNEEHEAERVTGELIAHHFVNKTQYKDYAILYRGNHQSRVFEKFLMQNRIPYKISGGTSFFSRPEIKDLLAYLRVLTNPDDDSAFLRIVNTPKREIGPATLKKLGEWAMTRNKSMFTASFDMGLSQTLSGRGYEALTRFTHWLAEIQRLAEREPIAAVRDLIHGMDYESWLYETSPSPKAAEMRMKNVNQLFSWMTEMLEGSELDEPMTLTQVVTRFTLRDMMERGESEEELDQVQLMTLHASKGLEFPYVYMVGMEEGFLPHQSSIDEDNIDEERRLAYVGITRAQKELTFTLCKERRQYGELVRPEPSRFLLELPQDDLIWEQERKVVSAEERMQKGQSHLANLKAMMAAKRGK
The experiment in a line: SPR; BIAcore T200, 25°C; biotinylated UvrD or Rep immobilised on streptavidin-coated SA chips; Tau or UvrB passed over, ca. 200-4000 nM, 20 µl/min; 10 mM HEPES pH 7.4, 3 mM EDTA, 150 mM NaCl, 10 mM MgCl2, 0.05% Tween 20; single sites binding model. To be noted: both partners purified.

B1: Tau (natural protein, E. coli, UniProt P06710 1-643, looked up)
chain: MSYQVLARKWRPQTFADVVGQEHVLTALANGLSLGRIHHAYLFSGTRGVGKTSIARLLAKGLNCETGITATPCGVCDNCREIEQGRFVDLIEIDAASRTKVEDTRDLLDNVQYAPARGRFKVYLIDEVHMLSRHSFNALLKTLEEPPEHVKFLLATTDPQKLPVTILSRCLQFHLKALDVEQIRHQLEHILNEEHIAHEPRALQLLARAAEGSLRDALSLTDQAIASGDGQVSTQAVSAMLGTLDDDQALSLVEAMVEANGERVMALINEAAARGIEWEALLVEMLGLLHRIAMVQLSPAALGNDMAAIELRMRELARTIPPTDIQLYYQTLLIGRKELPYAPDRRMGVEMTLLRALAFHPRMPLPEPEVPRQSFAPVAPTAVMTPTQVPPQPQSAPQQAPTVPLPETTSQVLAARQQLQRVQGATKAKKSEPAAATRARPVNNAALERLASVTDRVQARPVPSALEKAPAKKEAYRWKATTPVMQQKEVVATPKALKKALEHEKTPELAAKLAAEAIERDPWAAQVSQLSLPKLVEQVALNAWKEESDNAVCLHLRSSQRHLNNRGAQQKLAEALSMLKGSTVELTIVEDDNPAVRTPLEWRQAIYEEKLAQARESIIADNNIQTLRRFFDAELDEESIRPI
notes: Tau subunit of DNA polymerase III, a component of the E. coli replisome; also called Tau protein
In general, Kd refers to the concentration at which binding is half-saturated. As for B1, the Kd came to 2300 nM.
